The values that follow come from patent US8426598B2, “N-heterocyclic M1 receptor positive allosteric modulators” (Merck, Sharp & Dohme, Corp., priority 2008, dated 2013).

Amino acid sequences for entries named in this document (tags omitted).
UniProt P11229, whole entry: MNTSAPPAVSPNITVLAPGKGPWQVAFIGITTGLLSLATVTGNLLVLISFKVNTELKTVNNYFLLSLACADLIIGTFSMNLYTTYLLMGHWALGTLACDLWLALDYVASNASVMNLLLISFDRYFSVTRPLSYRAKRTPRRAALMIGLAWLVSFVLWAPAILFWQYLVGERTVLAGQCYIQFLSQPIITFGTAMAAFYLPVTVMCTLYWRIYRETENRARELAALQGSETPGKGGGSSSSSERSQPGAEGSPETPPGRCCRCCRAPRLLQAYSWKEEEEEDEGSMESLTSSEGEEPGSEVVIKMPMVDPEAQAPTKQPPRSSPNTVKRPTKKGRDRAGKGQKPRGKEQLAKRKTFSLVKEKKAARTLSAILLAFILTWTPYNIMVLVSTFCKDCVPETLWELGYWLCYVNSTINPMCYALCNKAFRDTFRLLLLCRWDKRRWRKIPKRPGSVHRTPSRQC

In this test the target is acetylcholine muscarinic M1 receptor (CHOnfat/hM1 cells) (Homo sapiens, UniProt P11229). The test is described as follows: muscarinic FLIPR assay: intracellular calcium, potentiation of an EC20 concentration of acetylcholine. To be noted: read-out: IP Value (inflection point), FLIPR Ca2+, 4 min preincubation, then EC20 acetylcholine (3 nM final). The method, then: The assay studies the effect of one or several concentrations of test compounds on basal or acetylcholine-stimulated Ca^2+ levels using FLIPR.
Compounds are prepared and subjected to a preincubation period of 4 min. Thereafter, a single EC20 concentration of acetylcholine is added to each well (3 nM final). The intracellular Ca^2+ level of each sample is measured and compared to an acetylcholine control to determine any modulatory activity.
Cells: CHOnfat/hM1, hM2, hM3 or hM4 cells are plated 24 hr before the assay at a density of 18,000 cells/well (100 μL) in a 384 well plate. CHOnfat/hM1 and CHOnfat/hM3 Growth Medium: 90% DMEM (Hi Glucose); 10% HI FBS; 2 mM L-glutamine; 0.1 mM NEAA; Pen-Strep; and 1 mg/ml Geneticin, are added. For M2Gqi5CHOnfat and M4Gqi5CHOnfat cells, an additional 600 μg/ml hygromycin is added.
Equipment: 384 well plate, 120 μL addition plate; 96-well Whatman 2 ml Uniplate Incubator, 37° C., 5% CO2; Skatron EMBLA-384 Plate Washer; Multimek Pipetting System; Genesis Freedom 200 System; Mosquito System; Temo Nanolitre Pipetting System; and FLIPR^384 Fluorometric Imaging Plate Reader System are used.
Buffers. […]
After 60 min, the cells are washed three times with 100 μL of buffer, leaving 30 μL of buffer in each well. […] A signal test to check background fluorescence and basal fluorescence signal is performed. […]
On the technique in general: Calcium assays in cells follow changes in intracellular calcium, usually with a dye or a luminescent sensor.

For `C=C(C)c1ccn(-c2ccc(Cn3cc(C(=O)O)c(=O)c4c(F)cccc43)cc2)n1`, the EC50 is 36 nM. As for `CCOC(=O)c1cn(Cc2ccc(-n3cc(C(O)C(F)(F)F)cn3)cc2)c2cccc(F)c2c1=O` (centres unmarked), the EC50 stood at 120 nM.
